Nrf2 inh = Nrf2 pathway inhibition; hit rate 2.1% among 360,000; Potency, µM (top dose mostly 46 µM), for the others: at the top dose activity change, negative = inhibition, usual class: inhibitors; A549 ARE-Fluc reporter, luciferase luminescence, 18-24 h; AID 504444; also: potency is read from the fitted curve at half-maximal effect; % is scaled to controls: 0 for no effect and ±100 for the full control effect; nearly all actives have a fitted effect of over 60% in size
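Concentration-response testing used A549 ARE_Fluc cells at 5000 cells/well. Following an 18-24 h compound incubation, viability was read by fluorescence (Ex 405/Em 525) and luciferase output by luminescence.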
ClpP mod = qHTS Assay for Activators of ClpP. hit rate 1.9% among 340,000. purified B. subtilis ClpP, FRET peptide cleavage, 20 min. Potency, µM (top dose mostly 57.5 µM), for the others: at the highest dose activity change, negative = active. AID 651965, 2013. ATP-dependent Clp protease proteolytic subunit (Bacillus subtilis (strain 168)), P80244; active = well fitted falling curve with a large enough effect; inconclusive = small, poorly fitted or top-dose-only effect; inactive = no such curve, though single readings can be large or run the other way; also: potency is read from the fitted curve at half-maximal effect; the source files actives as falling curves though it sought activators and does not explain the sign; nearly all actives have a fitted effect of over 65% in size
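FRET quenching reversal measured ClpP activation: 10 microg/mL B. subtilis ClpP at pH 8 with the FRET-FV decapeptide, read at 430 nm after 320 nm excitation. The 20-min minus 0-min signal was scaled between DMSO/no-enzyme wells and ADEP (5.8 microM final).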
miR-21 FLuc = miR-21 reporter, rising signal | HeLa miR-21 FLuc reporter, luciferase, 48 h | Potency, µM (top dose mostly 38.3 µM), inactives show at the highest dose reporter change, positive = more light | 340,000 tested, under 10 active | AID 2288; active = well fitted rising curve with a large enough effect; inconclusive = small, poorly fitted or top-dose-only effect; inactive = no such curve, though single readings can be large or run the other way;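 note: % of control where 0% means no effect; miR-21 action dims this reporter so a rising signal means less miR-21 action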
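Luminescence from a firefly luciferase reporter carrying a miR-21 binding site downstream, stably expressed under a CMV promoter in HeLa cells that make miR-21 endogenously, reports miRNA modulation after 48 h compound exposure up to approximately 40uM final.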
A549 tox = kills or reduces viability of A549 cells in Nrf2 counter-screen; A549 ARE-Fluc cells, CellTiter-Fluor viability, 18-24 h; Potency, µM (series often up to 46 µM), for the others: at the top dose activity change, negative = cytotoxicity, hits mostly inhibitors; hit rate 0.16% among 390,000; AID 504648; also: potency is read from the fitted curve at half-maximal effect; % is scaled to controls: 0 for no effect and ±100 for the full control effect
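A549 ARE-Fluc cells in 5% FBS OPTI-MEM, 5000 cells/well, rested 2 h then exposed to compounds in concentration-response for 18-24 h at 37 °C. Viability by CellTiter-Fluor fluorescence (Ex 405/Em 525) after 30 min; luciferase luminescence (BugLite, 15 min, RT) read afterwards.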
Nrf2 activator = activators of Nrf2 (ARE) signaling | AID 624171 | Potency, µM (top dose mostly 46.1 µM), inactives show at the highest dose activation, actives largely listed as activators | hit rate 0.31% among 410,000 | AREc32 ARE-luciferase reporter (MCF7-derived line), luminescence, 24 h; also: potency is read from the fitted curve at half-maximal effect; % of control where 0% means no effect; nearly all actives have a fitted effect of over 65% in size
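ARE-driven firefly luciferase activity in AREc32 cells measured after a 24 hr compound exposure at 37 deg C, using Steady-Glo reagent and a 30 min room-temperature hold.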
p53 reactivation = restores transcriptional activity of mutant p53; hit rate 0.063% among 320,000; Potency, µM (series often up to 92.2 µM), for inactives: at the highest dose activity change, positive = activation, hits mostly activators; H1299 p53-A138V BP100-luciferase reporter, luminescence, 24 h; also: potency is read from the fitted curve at half-maximal effect; % of control where 0% means no effect; nearly all actives have a fitted effect of over 45% in size
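H1299 (p53-null), stable ts p53-A138V + BP100-Luc; 1000 cells/well, Opti-MEM/10% FBS; cpd 4 pt, 1:5; 24 h, 37 deg C, 5% CO2; detection reagent 10 min RT; luminescence.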
Active calls of the source: *; ? = inconclusive; nt = no result; [ ] = another dose, or the depositor's remark. Only some compounds are listed: those with a hit (about 3.7% of all), similar ones and a draw of the others. Unless noted, calls follow the shape of the dose curve; as a rule, active = well fitted curve in the direction sought with a large enough effect; inconclusive = small, poorly fitted or top-dose-only effect, or another doubt; inactive = no such curve, though single readings can be large; an effect the other way counts as inactive or inconclusive.

cpd	Molecule	Nrf2 inh	ClpP mod	miR-21 FLuc
1	Oc1cccc(/C=N/c2c(-c3ccco3)nc3ccccn23)c1	0.5%	28.2µM*	-10.5%
2	COc1cc(-c2nc3ccccn3c2/N=C/c2ccccc2)ccc1O	6.8%	31.6µM*	-15.3%
3	O=C(COC(=O)C1CCN(c2ccc(C(F)(F)F)cn2)CC1)NCc1cccc(Cl)c1	-0.1%	1.4%	nt
4	CCCN(CC(=O)Nc1ccc(Cl)cc1Cl)C(=O)/C=C/c1cc(OC)ccc1OC	-27.6%	15.8µM*	-4.9%
5	CCCN(CC(=O)Nc1cc(Cl)ccc1Cl)C(=O)/C=C/c1cc(OC)ccc1OC	?	?	nt
6	CCCN(CC(=O)Nc1cc(Cl)ccc1Cl)C(=O)/C=C/c1ccco1	-18.9%	3.1%	-19.8%
7	O=C(NCC(c1ccc2c(c1)OCO2)N1CCN(c2ccccc2)CC1)c1ccccc1 (stereo not given)	nt	-3.2%	-3.0%
8	COc1ccc(CN(Cc2ccccc2)C(=O)c2ccccc2N)cc1COc1ccc(NC(C)=O)cc1	-9.9%	nt	nt
9	Cc1c(CC(=O)NCCCC(=O)O)c(=O)oc2cc3c(cc12)CCC(C)(C)O3	18.4µM*	nt	?
10	Cc1c(CC(=O)NCCCCCC(=O)O)c(=O)oc2cc3c(cc12)CCC(C)(C)O3	10.3µM*	nt	14.5%
11	CCOc1ccc2[nH]c(C(=O)N/N=C/c3ccc(OC)cc3)cc2c1	3.0%	nt	16.4%
12	COc1cc2cc(C(=O)N/N=C/c3ccc(F)cc3)[nH]c2cc1OC	-15.2%	-25.2%	-1.1%
13	COc1ccc2[nH]c(C(=O)N/N=C/c3ccc(O)cc3O)cc2c1	2.31µM*	-5.5%	16.3%
14	COc1ccc(/C=N/NC(=O)c2cc3cc(OC)c(OC)cc3[nH]2)cc1	20.6µM*	3.2%	-0.5%
15	Cc1ccc(CCNC(=O)c2cc3ccccn3n2)cc1	?	-4.7%	-37.9%

cpd	A549 tox	Nrf2 activator	p53 reactivation
1	0.0%	3.9%	?
2	-1.0%	7.3%	4.2%
3	-4.0%	1.8%	4.3%
4	-3.0%	0.0%[9.22 µM]	-20.0%
5	-3.2%	4.1%	-1.3%
6	1.5%	11.2µM*	0.6%
7	-0.5%	5.8%	nt
8	-2.4%	nt	nt
9	15.4%	-2.6%	-10.0%
10	2.9%	-1.2%	-2.4%
11	-11.4%	0.5%	14.9%
12	2.0%	2.0%	-3.8%
13	-30.0%	-0.5%	?
14	0.4%	2.5%	0.7%
15	14.9%	-0.1%	nt

Two consecutive records from above:
cpd	Molecule	Nrf2 inh	ClpP mod	miR-21 FLuc
1	Oc1cccc(/C=N/c2c(-c3ccco3)nc3ccccn23)c1	0.5%	28.2µM*	-10.5%
2	COc1cc(-c2nc3ccccn3c2/N=C/c2ccccc2)ccc1O	6.8%	31.6µM*	-15.3%

cpd	A549 tox	Nrf2 activator	p53 reactivation
1	0.0%	3.9%	?
2	-1.0%	7.3%	4.2%

Laid out differently: two of the compounds above
nr	SMILES	Nrf2 inh	ClpP mod	miR-21 FLuc	A549 tox	Nrf2 activator	p53 reactivation
7	O=C(NCC(c1ccc2c(c1)OCO2)N1CCN(c2ccccc2)CC1)c1ccccc1 (stereo not given)	nt	-3.2%	-3.0%	-0.5%	5.8%	nt
12	COc1cc2cc(C(=O)N/N=C/c3ccc(F)cc3)[nH]c2cc1OC	-15.2%	-25.2%	-1.1%	2.0%	2.0%	-3.8%

(next part)
cpd	Molecule	Nrf2 inh	ClpP mod	miR-21 FLuc
16	CC(C)C[C@@H]1NC(=O)[C@H](Cc2ccccc2)N(C)C(=O)[C@H](C)NC(=O)c2ccccc2NC(=O)[C@H](Cc2ccc(O)cc2)N(C)C1=O	23.1µM*	-15.9%	?
17	COc1cccc(C2c3c(-c4ccccc4O)n[nH]c3C(=O)N2CCc2ccc(OC)c(OC)c2)c1 (stereo not given)	?	-1.7%	19.3%
18	Oc1ccc(COc2ccccc2Cl)c2cccnc12	18.4µM*	nt	nt
19	Oc1ccc(CCc2ccccc2)c2cccnc12	?	nt	nt
20	Cc1ccc2oc(-c3ccc(NC(=O)COc4ccccc4)cc3O)nc2c1	nt	4.1%	nt
21	CCc1ccc(C2=NN(CCC(=O)NCCc3ccccc3)C(=O)CC2)cc1	nt	-0.4%	-0.3%
22	CC1(C)CC[C@]2(C(=O)n3ccnc3)CC[C@]3(C)[C@H](C(=O)C=C4[C@@]5(C)C=C(C#N)C(=O)C(C)(C)[C@@H]5CC[C@]43C)[C@@H]2C1	5.8µM*	-2.3%	nt
23	COc1ccc(NC(=O)c2oc3ccc(S(=O)(=O)N4CCC5(CC4)OCCO5)cc3c2C)cc1Cl	nt	?	23.6%
24	CCCCCc1nc2c(C#N)c(-c3ccc(Cl)cc3)ccn2n1	-12.3%	28.2µM*	-9.3%
25	N#Cc1c(-c2ccc(Cl)cc2)ccn2nc(CCC(=O)O)nc12	10.2%	25.1µM*	-12.1%
26	COC(=O)Cn1ccc(-c2ccc(Cl)cc2)c(C#N)c1=O	0.0%	-16.6%	0.8%
27	COc1ccc(Br)cc1S(=O)(=O)N1CCN(S(=O)(=O)c2ccc3c(c2)OCCO3)CC1	?	nt	nt
28	O=S(=O)(c1ccccc1)c1nnn2c1nc(NC1CCN(Cc3ccccc3)CC1)c1ccccc12	?	3.9%	-3.1%
29	O=S(=O)(c1ccccc1)c1nnn2c1nc(NC1CCN(Cc3ccccc3)CC1)c1cc(Cl)ccc12	6.51µM*	?	0.8%
30	COc1ccc(CCNC(=O)CSCc2nc(-c3cccc(C)c3)oc2C)cc1OC	?	-2.4%	19.5%

cpd	A549 tox	Nrf2 activator	p53 reactivation
16	?	4.0%	-3.4%
17	-16.3%	0.6%	nt
18	-4.8%	nt	nt
19	-1.3%	nt	nt
20	nt	nt	nt
21	-5.4%	4.2%	nt
22	6.51µM*	1.12µM*	nt
23	-1.9%	1.0%	nt
24	-10.8%	2.5%	1.9%
25	-0.1%	-0.1%	nt
26	8.7%	-0.1%	-1.3%
27	-1.3%	nt	nt
28	?	0.1%	-9.7%
29	?	-0.8%	-9.7%
30	-3.4%	0.0%	nt

(more compounds)
cpd	Molecule	Nrf2 inh	ClpP mod	miR-21 FLuc
31	COc1cc(N(C)C)ccc1C=c1c2ccccc2n2c1cc(-c1ccccc1)[n+]2C	14.6µM*	-4.0%	nt
32	CN(C)c1ccc(C=c2c3ccccc3n3c2cc(-c2ccccc2)[n+]3C)cc1	5.8µM*	2.0%	nt
33	CN(C)c1ccc(/C=C2\CCc3ccccc32)cc1	nt	4.3%	nt
34	CN(C)c1ccc(C=c2c3ccccc3n3c2cc(-c2ccc(Cl)cc2)[n+]3C)cc1	?	0.3%	nt
35	COc1cc(C=c2c3ccccc3n3c2cc(-c2ccccc2)[n+]3C)cc(OC)c1OC	16.4µM*	-1.2%	nt
36	CN(C)c1ccc(C=c2c3ccccc3n3c2c2c([n+]3C)CCCC2)cc1	6.51µM*	-13.4%	nt
37	CN(C)c1ccc(/C=C2\C=Cc3cc([N+](=O)[O-])ccc32)cc1	nt	1.3%	nt
38	CN(C)c1ccc(C=c2c3cc([N+](=O)[O-])ccc3n3c2cc(-c2ccccc2)[n+]3C)cc1	8.2µM*	-2.7%	nt
39	CCOC(=O)c1nc(N)c(C(=O)OCC)[nH]1	18.5%	14.1µM*	-4.7%
40	CCOc1ccc(S(=O)(=O)N2CCC(N3CCN(Cc4ccc(F)cc4)C(=O)C3=O)CC2)cc1	19.7%	1.4%	-1.5%
41	O=S(=O)(c1cccc(-c2nnc(SCc3nc4ccccc4s3)o2)c1)N1CCOCC1	?	28.2µM*	-47.5%
42	O=c1[nH]nc(Sc2ncnc3sccc23)n1CCc1ccccc1	14.6µM*	1.1%	?
43	CCN(CC)C(=O)CSc1n[nH]c(=O)n1CCc1ccccc1	-9.2%	nt	2.5%
44	COC[C@@H]1CCCN1c1ccc2c(c1)O[C@@H](COCc1ccccc1)CN([C@@H](C)c1ccccc1)S2(=O)=O	nt	14.1µM*	nt

cpd	A549 tox	Nrf2 activator	p53 reactivation
31	?	5.9%	nt
32	16.4µM*	-0.1%	nt
33	nt	nt	nt
34	?	26.0%	nt
35	?	15.4%	nt
36	20.6µM*	-2.7%	nt
37	nt	nt	nt
38	?	-3.5%	nt
39	-2.1%	-0.6%	?
40	10.5%	0.4%	nt
41	6.7%	14.1µM*	?
42	-5.5%	?	-39.2%
43	2.2%	0.3%	-1.5%
44	nt	0.2%	nt
